Reference: patent US9663508B2, “Biaryl acyl-sulfonamide compounds as sodium channel inhibitors” (AMGEN INC., priority 2013, dated 2017)

Chains of the proteins cited; added tags and fusions are not shown.
UniProt Q14524, whole entry: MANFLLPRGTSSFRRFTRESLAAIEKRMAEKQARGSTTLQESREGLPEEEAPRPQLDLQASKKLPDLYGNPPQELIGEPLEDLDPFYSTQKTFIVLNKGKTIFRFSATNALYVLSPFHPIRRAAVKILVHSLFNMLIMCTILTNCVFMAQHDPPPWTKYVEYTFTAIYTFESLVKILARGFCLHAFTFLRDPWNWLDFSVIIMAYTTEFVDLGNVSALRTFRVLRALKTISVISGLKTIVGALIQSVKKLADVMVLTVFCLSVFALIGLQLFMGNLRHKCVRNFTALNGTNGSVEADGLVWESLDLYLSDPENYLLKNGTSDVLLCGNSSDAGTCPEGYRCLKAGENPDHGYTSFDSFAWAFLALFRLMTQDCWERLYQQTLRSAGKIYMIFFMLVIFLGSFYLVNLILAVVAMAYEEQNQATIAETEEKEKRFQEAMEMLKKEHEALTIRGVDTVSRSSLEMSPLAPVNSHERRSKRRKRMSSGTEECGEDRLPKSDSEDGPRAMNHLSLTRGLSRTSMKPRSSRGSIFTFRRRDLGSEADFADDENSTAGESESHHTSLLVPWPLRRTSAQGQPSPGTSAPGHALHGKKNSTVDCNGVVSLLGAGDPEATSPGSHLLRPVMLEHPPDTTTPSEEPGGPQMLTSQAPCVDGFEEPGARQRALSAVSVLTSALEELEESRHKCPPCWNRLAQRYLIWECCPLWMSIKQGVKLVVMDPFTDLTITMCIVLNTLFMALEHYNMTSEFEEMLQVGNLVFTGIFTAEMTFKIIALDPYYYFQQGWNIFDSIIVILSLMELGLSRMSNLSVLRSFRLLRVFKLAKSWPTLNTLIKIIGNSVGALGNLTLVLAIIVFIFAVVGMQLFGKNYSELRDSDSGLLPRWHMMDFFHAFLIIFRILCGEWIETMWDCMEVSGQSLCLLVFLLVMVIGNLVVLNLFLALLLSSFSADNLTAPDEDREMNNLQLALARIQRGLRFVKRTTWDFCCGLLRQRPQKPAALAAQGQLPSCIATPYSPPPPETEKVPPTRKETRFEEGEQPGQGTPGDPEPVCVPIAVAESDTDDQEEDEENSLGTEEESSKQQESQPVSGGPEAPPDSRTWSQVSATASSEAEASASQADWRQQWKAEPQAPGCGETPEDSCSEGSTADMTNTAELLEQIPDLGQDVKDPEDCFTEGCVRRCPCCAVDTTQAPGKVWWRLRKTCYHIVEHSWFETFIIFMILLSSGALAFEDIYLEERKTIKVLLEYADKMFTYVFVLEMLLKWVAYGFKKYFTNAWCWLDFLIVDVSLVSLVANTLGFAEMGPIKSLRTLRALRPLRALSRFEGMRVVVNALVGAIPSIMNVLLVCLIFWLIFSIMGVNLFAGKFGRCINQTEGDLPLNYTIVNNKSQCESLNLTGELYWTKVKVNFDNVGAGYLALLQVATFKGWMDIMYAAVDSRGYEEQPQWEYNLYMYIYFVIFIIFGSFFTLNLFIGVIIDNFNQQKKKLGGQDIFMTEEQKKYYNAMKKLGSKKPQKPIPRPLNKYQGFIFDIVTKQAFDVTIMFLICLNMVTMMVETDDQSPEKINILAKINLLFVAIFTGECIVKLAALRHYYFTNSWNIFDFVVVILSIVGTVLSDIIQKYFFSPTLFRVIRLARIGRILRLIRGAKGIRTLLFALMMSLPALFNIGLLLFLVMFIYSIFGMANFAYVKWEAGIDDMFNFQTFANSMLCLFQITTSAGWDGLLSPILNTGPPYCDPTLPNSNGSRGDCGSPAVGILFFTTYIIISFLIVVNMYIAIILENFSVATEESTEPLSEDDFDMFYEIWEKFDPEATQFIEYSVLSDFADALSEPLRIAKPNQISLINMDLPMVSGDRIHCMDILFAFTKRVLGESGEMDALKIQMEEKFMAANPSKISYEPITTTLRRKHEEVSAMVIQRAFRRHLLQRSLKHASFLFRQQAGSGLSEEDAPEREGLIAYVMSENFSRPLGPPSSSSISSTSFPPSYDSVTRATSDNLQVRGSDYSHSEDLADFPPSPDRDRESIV
UniProt Q15858, whole entry: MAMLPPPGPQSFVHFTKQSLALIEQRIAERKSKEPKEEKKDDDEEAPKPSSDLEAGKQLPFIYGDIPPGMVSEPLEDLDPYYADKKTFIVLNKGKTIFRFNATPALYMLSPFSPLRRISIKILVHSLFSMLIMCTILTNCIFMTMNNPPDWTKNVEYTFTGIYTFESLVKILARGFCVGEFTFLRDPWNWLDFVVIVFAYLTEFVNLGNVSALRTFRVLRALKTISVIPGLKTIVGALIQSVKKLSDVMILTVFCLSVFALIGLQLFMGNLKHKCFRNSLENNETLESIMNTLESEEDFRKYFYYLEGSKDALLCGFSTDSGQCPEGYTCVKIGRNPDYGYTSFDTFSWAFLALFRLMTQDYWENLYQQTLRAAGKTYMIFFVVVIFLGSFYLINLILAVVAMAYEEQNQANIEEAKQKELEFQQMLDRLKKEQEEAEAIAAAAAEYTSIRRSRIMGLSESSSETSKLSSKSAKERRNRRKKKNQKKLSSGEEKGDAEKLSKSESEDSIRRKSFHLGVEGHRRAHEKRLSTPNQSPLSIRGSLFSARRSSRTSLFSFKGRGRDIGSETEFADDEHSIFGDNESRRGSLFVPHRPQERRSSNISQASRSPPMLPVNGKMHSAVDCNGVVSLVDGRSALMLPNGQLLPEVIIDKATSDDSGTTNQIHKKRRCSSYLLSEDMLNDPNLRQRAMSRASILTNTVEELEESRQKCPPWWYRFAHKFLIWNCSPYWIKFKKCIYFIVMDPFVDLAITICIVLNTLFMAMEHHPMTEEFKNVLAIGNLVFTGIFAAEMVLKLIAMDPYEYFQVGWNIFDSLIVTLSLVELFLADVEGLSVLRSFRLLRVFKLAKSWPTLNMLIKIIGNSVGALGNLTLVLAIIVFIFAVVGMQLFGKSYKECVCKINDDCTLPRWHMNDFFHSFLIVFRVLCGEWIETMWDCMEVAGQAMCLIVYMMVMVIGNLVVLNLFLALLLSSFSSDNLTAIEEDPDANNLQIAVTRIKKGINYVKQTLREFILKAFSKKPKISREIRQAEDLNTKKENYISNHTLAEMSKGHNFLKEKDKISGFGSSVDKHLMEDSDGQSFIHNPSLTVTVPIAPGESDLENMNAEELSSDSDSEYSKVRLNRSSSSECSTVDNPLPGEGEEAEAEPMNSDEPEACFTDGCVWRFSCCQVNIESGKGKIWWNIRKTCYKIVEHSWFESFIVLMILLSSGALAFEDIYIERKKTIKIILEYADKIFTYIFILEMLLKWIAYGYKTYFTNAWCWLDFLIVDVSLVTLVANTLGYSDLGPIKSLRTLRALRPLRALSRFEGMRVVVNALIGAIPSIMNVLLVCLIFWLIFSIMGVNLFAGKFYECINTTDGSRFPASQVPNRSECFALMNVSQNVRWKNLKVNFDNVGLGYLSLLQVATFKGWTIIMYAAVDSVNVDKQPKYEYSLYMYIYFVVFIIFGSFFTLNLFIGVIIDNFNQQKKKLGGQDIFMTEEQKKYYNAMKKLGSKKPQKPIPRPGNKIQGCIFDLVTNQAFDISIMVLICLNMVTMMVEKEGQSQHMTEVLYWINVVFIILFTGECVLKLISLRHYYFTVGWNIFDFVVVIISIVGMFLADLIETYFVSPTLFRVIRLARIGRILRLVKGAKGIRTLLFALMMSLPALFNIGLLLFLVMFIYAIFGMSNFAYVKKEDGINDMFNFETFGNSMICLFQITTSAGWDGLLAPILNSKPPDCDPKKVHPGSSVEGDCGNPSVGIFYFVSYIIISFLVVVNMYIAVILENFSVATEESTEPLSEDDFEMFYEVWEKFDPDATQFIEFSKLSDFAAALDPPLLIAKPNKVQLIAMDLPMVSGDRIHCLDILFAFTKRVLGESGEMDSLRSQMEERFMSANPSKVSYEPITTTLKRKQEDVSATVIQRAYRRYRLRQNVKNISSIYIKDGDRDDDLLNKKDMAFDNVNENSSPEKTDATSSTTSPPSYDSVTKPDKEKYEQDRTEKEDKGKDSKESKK

Columns and labels:
[1] = biological target: human Nav 1.5 (Homo sapiens (Human), UniProt Q14524); assay: Nav 1.5 IonWorks Quattro (IWQ) in vitro assay; format: cell-based; conditions: read-out: NAV 1.5 IWQ IC50
[2] = biological target: human Nav1.7 (Homo sapiens (Human), UniProt Q15858); assay: Nav 1.7 in vitro PatchXpress (PX) assay; format: cell-based; conditions: read-out: NAV 1.7 PX IC50

CCCCC(Oc1ncc(-c2cc(F)c(C(=O)NS(C)(=O)=O)cc2C)cc1Cl)c1ccccc1Cl (centres unmarked)
IC50 [1]: 4410 nM | IC50 [2]: 49.8 nM
